The record followed here is PubChem BioAssay AID1276 (Columbia University Molecular Screening Center, 2008).

The list shows a part of the results, in another mix than the full data. Some results for these compounds are left out of this collection, so the calls shown say nothing about other tests. Active and inactive are the calls of the source.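 How the source made its calls: active means activation above a set limit, based on mean plus 3 SD of controls (cut at about 140% in these data); inconclusive means one replicate above the limit, the other below; inactive means the rest.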

The test in a line: activators of APP 5'UTR luciferase reporter, primary screen, SH-SY5Y cells (AID 1276). Particulars: SH-SY5Y APP 5'UTR luciferase reporter, luminescence; at 2 µM; stronger effect = higher value; zero percent = DMSO vehicle wells. (In general: In a reporter assay the amount or activity of a reporter protein is the signal.)
As for `O=C(NCC1(N2CCCCC2)CCCCC1)c1cc([N+](=O)[O-])ccc1Cl`, the activation is inactive: 13.2%.
For the compound `CC(C)N1C(=O)CC2(CCN(CCOC(=O)C(O)(c3ccccc3)c3ccccc3)CC2)C1=O`, the activation was inactive: 3.31%.
With `Cc1ccccc1C(=O)NCC1(N2CCCCC2)CCCCC1` the figure was inactive: 2.86%; with `CN(C)C1CCCC1OC(=O)C(O)(c1ccccc1)c1ccccc1` (centres undefined), inactive: -15.8%.
`CCN1CCCC(OC(=O)C2(O)c3ccccc3C=Cc3ccccc32)C1` (centres undefined): the activation is inactive: -4.84%.
For `C=CCN1CCN(CCOC(=O)C(O)(c2ccccc2)c2ccccc2)CC1`, the activation was inactive: 4.68%.
`COc1cccc(C(=O)NCC2(N3CCCCC3)CCCCC2)c1`: the activation is inactive: 24.5%.
With `O=C(OC1CN2CCC1CC2)C(CO)(c1ccccc1)c1ccccc1` (centres undefined) the figure was inactive: 11.9%.
Regarding `CN(C)c1cccc(C(=O)NCC2(N(C)C)CCCCC2)c1`, the activation is inactive: 35.3%.
